{"source": "patent US10098870B2", "about": "(JENKEM TECHNOLOGY CO., LTD. (BEIJING), priority 2013, dated 2018)", "key": {"[1]": {"assay": "Body weight, survival and tolerance of mice bearing plc/prf/5 (Example 6)", "format": "in vivo, nude mouse", "details": "for N, number of surviving animals after completion of the treatment: 6 animals per group", "description": "Wherein QW×4W represents intravenous injection once a week for 4 weeks, BIW×4W represents intravenous injection […] for 4 weeks, the same below. (2) Experimental Results"}, "[2]": {"assay": "Body weight, survival and tolerance of mice bearing Hep3B (Example 7)", "format": "in vivo, mouse", "details": "for N, number of surviving animals after completion of the treatment: 6 animals per group"}, "[3]": {"assay": "Body weight, survival and tolerance of mice bearing H460 (Example 8)", "details": "6 animals per group"}, "[4]": {"assay": "Body weight, survival and tolerance of mice bearing A549 (Example 10);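 also: nude mice, each given 1.0×10^7 A549 tumor cells in the right shoulder region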", "details": "6 animals per group"}, "[5]": {"assay": "Body weight, survival and tolerance of mice bearing Calu-6 (Example 9);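 also: nude mice bearing Calu-6 tumours, established by implanting 5.0×10^6 cells at the right shoulder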", "details": "6 animals per group"}}, "note": "Entries after “also recorded” stand apart in the source; their conditions may differ.", "data": [{"substance": "monomethoxy polyethylene glycol (20K)-glutamic acid dipeptide-rapamycin conjugate [LPR-2]", "values": [{"measurement": "N, number of surviving animals after completion of the treatment", "setting": "[1]; 30 mg/kg i.v. BIW×4W", "result": 6}, {"measurement": "N, number of surviving animals after completion of the treatment", "setting": "[1]; 45 mg/kg i.v. QW×4W", "result": 6}, {"measurement": "toxicity / tolerance (in words)", "setting": "[1]; 5-FU 25 mg/kg, LPR-2 30 and 45 mg/kg", "result": "No abnormality; also recorded: a good tolerance and no death of animals occurred"}, {"measurement": "N, number of surviving animals after completion of the treatment", "setting": "[2]; 30 mg/kg i.v. BIW×4W", "result": 6}, {"measurement": "N, number of surviving animals after completion of the treatment", "setting": "[2]; 45 mg/kg i.v. QW×4W", "result": 6}, {"measurement": "toxicity / tolerance (in words)", "setting": "[2]; 5-FU 15 mg/kg, LPR-2 30 and 45 mg/kg", "result": "a good tolerance and no death of animals occurred"}, {"measurement": "N, number of surviving animals after completion of the treatment", "setting": "[3]; 30 mg/kg i.v. BIW×3W", "result": 6}, {"measurement": "N, number of surviving animals after completion of the treatment", "setting": "[3]; 45 mg/kg i.v. QW×3W", "result": 6}, {"measurement": "N, number of surviving animals after completion of the treatment", "setting": "[4]; 30 mg/kg i.v. BIW×4W", "result": 6}, {"measurement": "N, number of surviving animals after completion of the treatment", "setting": "[4]; 45 mg/kg i.v. QW×4W", "result": 6}, {"measurement": "N, number of surviving animals after completion of the treatment", "setting": "[5]; 30 mg/kg i.v. BIW×4W", "result": 6}, {"measurement": "N, number of surviving animals after completion of the treatment", "setting": "[5]; 45 mg/kg i.v. QW×4W", "result": 6}]}]}
